Reference: paper PMC10969092, “Characterization of Lysophospholipase D Activity in Mammalian Cell Membranes” (Cells, 2024)

Tested on: lyso-PLD
Experiment: In vitro membrane lyso-PLD assay (B-lyso-PC substrate, B-LPA product)
Assay type: biochemical, rat
Details: varying concentrations; qualitative experiments; cell line not stated

CaCl2
Stimulation of lyso-PLD activity: did not stimulate lyso-PLD activity

CoCl2
Stimulation of lyso-PLD activity: did not stimulate lyso-PLD activity
